Legend:
[1] = system: 8505c cell line; experiment: Subcellular localization of DOX by intrinsic fluorescence imaging; type: cell-based, human; settings: ATC cells (8505c)
Procedure: Doxorubicin is an anthracycline that intercalates DNA, inhibits topoisomerase II, and therefore generates DNA damage leading to cell death. The 3′ amino of the daunosamine moiety on doxorubicin forms a covalent bond with the exocyclic amino of guanine, and this site is frequently modified to cage drug activity (Miller, M. A. et al. ACS nano 2018, 12, 12814-12826), as done here as well.
Subcellular localization of DOX in the 8505c cell line was measured using a modified BX63 (Olympus) inverted microscopy system equipped with an environmental chamber and robotic stage. DOX images were collected using a 40× air objective (PLAPO 40×/0.95 numerical aperture), with excitation and emission wavelengths of 489 nm and 508 nm, respectively. All images were processed using cellSens Dimension 3.1.1 (Olympus, USA) and ImageJ 1.53k (NIH, USA) software. Nuclear to cytoplasm fluorescence ratios were calculated and plotted using Excel (Microsoft) and Prism (GraphPad). 20 μM concentration of free (or released) DOX was used, and unirradiated prodrug used the same total (caged and uncaged) DOX concentration as used in the irradiated sample. Following treatment for 72 hours, live cells were immediately imaged by confocal microscopy.

[2] = Drug release upon X-ray irradiation, quantified by LC-MS; type: physicochemical; settings: for drug release at low radiation dose: X-ray doses of 1-2 Gy; for drug payload released from albumin-conjugate: X-ray doses of 8-16 Gy, conjugate solutions 100 μM
Procedure: The sensitivity of linker cleavage to varying doses of radiation were examined; Solutions of both conjugates at a concentration of 100 μM were irradiated at an exposure of 1-16 Gy, and LC-MS analysis was performed to determine the released drug concentrations (FIG. 7). […] With a standard protocol used in clinical treatments, patients typically receive ˜2 Gy radiation per day, 5 days a week, for ≥5 weeks, therefore yielding cumulative radiation doses of ≥50 Gy.
Determination of drug release efficiency was performed by preparing solutions of each prodrug in deionized water (0.1% DMF) to a final concentration of 10 μM. Vacuum degassing was performed by gently stirring the samples at ˜200 mbar for thirty minutes at room temperature, while degassing by argon was performed by bubbling ultra-high purity grade gas (Airgas, Lynn, MA, 01902, USA) into the solution at a rate of approximately 5 mL s-1. After these preparations, X-ray irradiation was performed using a Precision (Madison, CT, USA) X-Rad320 at a rate of 385±10 cGy/min until the desired dosage was achieved. Gamma irradiation was similarly performed on a dual source 137Cs Gammacell 40 Exactor (Best Theratronics) with a dose rate of roughly 50 cGy/min. After irradiation or other treatment, the concentration of the released drug and the intact prodrug were determined by LC-MS on a Waters instrument equipped with a Waters 2424 ELS Detector, Waters 2998 UV-Vis Diode array Detector, and a Waters 3100 Mass Detector. Drug concentrations were determined by comparing the AUC from the ELSD or isolated mass chromatographs (+ESI, 718.8 Da for MMAE, 544.4 Da for DOX) of the analyzed sample to a standard calibration curve.
For the measurement of released products relative to the X-ray dosage, DMBA-SIL-MMAE protein conjugate was prepared to a concentration of 50 μM in PBS (0.1% DMF, 5 mL), then purged with ultra-pure grade argon (5 mL s-1) for 15 minutes. The solution was then X-ray irradiated using the X-Rad320 to deliver 8 Gy irradiation and analyzed by LC-MS as described above.
For radiation release experiments, 10 μM solutions of the albumin-gardiquimod conjugate were prepared in PBS (pH 7.4). X-ray irradiation was performed using a Precision (Madison, CT, USA) X-Rad320 at a rate of 330±10 cGy/min until the desired dosage was achieved. Irradiated samples were incubated at room temperature for 1 hour following irradiation to allow for the drug to fully release. All samples were then analyzed via LC-MS and compared to a previously prepared calibration curve (5 point curve utilizing the M+H+ ESI signal) to determine the amount of free drug generated (results shown in FIG. 19)

[3] = system: 8505c (human anaplastic thyroid cancer); experiment: Cytotoxicity assay, 72 hour incubation, PrestoBlue (resazurin-based); type: cell-based
Procedure: Experiments with cancer cells were performed to assess the degree to which the disclosed linker strategy shields biological activity of the drug payload under un-irradiated conditions, and restore drug activity once irradiated. Cancer cell lines were selected with constitutively active oncogenic signaling in the mitogen activated protein kinase (MAPK) RAS/RAF/MEK/ERK pathway, which has been previously shown as important for oncogene-driven uptake of serum albumin (Li, R. et al. Nat. Nanotechnol. 2021, 16, 830-839); cancer-types that are treated with cytotoxic agents and radiation therapy, including anaplastic thyroid cancer (ATC), a rare but aggressive malignancy that is associated with high degrees of resistance to traditional chemotherapy and radiation therapy were of particular focus. Drugs were irradiated prior to cancer cell treatment to allow assessment of drug action (caging and uncaging) independent of the biological effects of radiation to the cancer cells, which even at <10 Gy doses in cells considered radioresistant, such as human 8505c ATC cells, can substantially impact proliferation in vitro (Oweida, A. et al. Cancer Thyroid 2018, 28, 739-747). […] Similar observations were found in cells derived from a genetically engineered mouse model of ATC (the TBP-3743 cell line) and other cancer cell lines (FIG. 8c and FIG. 20).
TBP-3743 (derived from a genetically engineered mouse model of anaplastic thyroid cancer) and 8505c (human anaplastic thyroid cancer) are described previously 59, as are HT1080-EB3-mApple cells 52. Raw264.7 (mouse macrophage model, Raw-MΦ) were from ATCC. […] All cells were routinely evaluated for mycoplasma contamination and cultured following provider guidelines using 10% FBS (Bio-Techne Sales), 100 IU mL-1 penicillin, 100 μg mL-1 streptomycin (Invitrogen), with incubation at 37° C. and 5% CO2. […] After addition of the corresponding drugs and a 72 hour incubation, the number of live cells was determined by PrestoBlue (ThermoFisher, USA) staining according to the provider's protocols.

[4] = system: HT1080 EB3-mApple cell line; experiment: EB3 imaging of microtubule dynamics by confocal microscopy; type: cell-based; settings: 1 μM
From the text: MMAE blocks the polymerization of tubulin into microtubules, which are critical cytoskeletal components that mediate mitotic cell division and metastatic invasion of cancer cells (Luthria, G. et al. Nat. Commun. 2020, 11, 3521; Dumontet, C. et al. Nat. Rev. Drug Discovery 2010, 9, 790-803). To directly visualize microtubule dynamics in live cancer cells, HT1080 EB3-mApple cell line was used, which transgenically expresses the fluorescent protein mApple fused to the protein EB3 (microtubule-associated protein RP/EB family member 3, MAPRE3). EB3 binds plus-end tips of growing microtubules, and time-lapse microscopy allows growing microtubules to be quantified for their abundance, growth velocities, and other features (Miller, M. A. et al. ACS nano 2018, 12, 12814-12826).
EB3 imaging was performed on an FV1000 confocal laser scanning microscope equipped with a 37° C. heated stage, XLUMPLFLN 20× (NA 1.0) water-immersion objective, 559 nm diode laser, and BA575-620 emission filter (all Olympus America). […] For MT tracks to be included in the downstream analyses, they must pass a strict set of filters: (1) located within a cell boundary, (2) be present in a minimum of 3 consecutive frames, (3) must have a path length less than 10 μm, (4) track persistence must be greater than 0.5 (measured on a scale of 0 to 1, with 1 indicating a line). […]

[5] = system: subcutaneous MC38 tumors; experiment: MMAE release in irradiated versus non-irradiated contralateral tumors, LC/MS; type: in vivo, C57BL/6 mice; settings: prodrug intravenously 24 hours prior to 10 Gy local irradiation; bilateral tumors excised after 10 minutes
Procedure: pATFB-caged compounds are chemically activatable in live cell cultures. Cancer cells treated with Alb-pATFB-SIL-MMAE accumulate the albumin vehicle, and subsequent 10 Gy irradiation activates roughly 50% of the drug (FIG. 18A). […] Alb-pATFB-SIL-MMAE prodrug was given intravenously 24 hours prior to 10 Gy irradiation locally at the tumor site. Irradiated and non-irradiated bilateral tumors were then excised after 10 minutes and examined by LC/MS for accumulation of activated uncaged MMAE (FIG. 18B).
All animal research was performed in accordance with guidelines from the Institutional Subcommittee on Research Animal Care. MC38 tumors were generated by injecting 106 cells into C57BL/6 mice on either flank. These mice were then treated with MSA-pATFB-SIL-MMAE conjugate via tail vein injection (0.2 mg prodrug per mouse). After 24 hours, these mice were X-ray irradiated (10 Gy) on one of their tumors, leaving the contralateral tumor as a negative control. The tumors were then harvested and minced in 100 μL lysis buffer (Invitrogen). The lysate was stored on ice for 1 hour before it was diluted 5-fold with 10% silver nitrate in acetonitrile. This suspension was incubated on ice for 10 minutes, then centrifuged (10,000 g for 5 min) and the supernatant was analyzed by LC-MS to determine the total drug in solution. […]

[6] = system: HT1080 cancer cells; experiment: Intracellular release of MMAE from albumin conjugate in live cells after X-ray irradiation, LC-MS; type: cell-based; settings: 24 hour incubation, then 10 Gy irradiation
Procedure: HT1080 cells stably expressing H2B-mApple were prepared as previously described (HT1080 H2B-mApple [Dubach et al., 2017, Nature Chemical Biology, 13, 168-173]). Intracellular release of MMAE from the MSA conjugate was measured by preparing confluent 15 cm culture plates of HT1080-mApple cells and adding the conjugate to a final concentration of 10 μM. These plates were incubated for 24 hours, then X-ray irradiated (10 Gy) and the cells were washed 3 times with PBS. Cell lysis buffer (Invitrogen, 100 μL) was then added to each plate and a cell scraper was used to dislodge the cells. The resulting cell suspension was kept on ice for 30 minutes before a solution of 10% silver nitrate in acetonitrile was added (5 fold dilution). After incubating for a further 10 minutes on ice, the suspensions were centrifuged (10,000 g for 5 min) and the supernatant was analyzed via LC-MS to determine the percentage of MMAE released. A comparison of the various prodrug conjugates was performed by preparing confluent HT1080-mApple cells in a 6-well plate. The cells were then treated with either free drug or the corresponding MSA conjugate, lysed and analyzed as described above (results shown in FIG. 18).

Substance	subcellular distribution of DOX fluorescence, irradiated conjugate ([1]; conjugate X-ray irradiated (8 Gy))	subcellular distribution of DOX fluorescence, unirradiated conjugate ([1]; unirradiated)	drug release at low radiation dose [2]	drug payload released from albumin-conjugate [2] [%]	fold higher IC50 than that observed for the parent drug ([3]; un-irradiated, 8505c ATC cells)	fold lower cytotoxicity compared to the parent MMAE drug ([3]; un-irradiated conjugate, 8505c cells)	fold lower cytotoxicity than the un-anchored compounds DMBA-SIL-MMAE and MMAE-DMBA ([3]; un-irradiated, 8505c cells) [fold]	impact on cancer cell microtubule dynamics, irradiated ([4]; after argon purging and X-ray irradiation (8 Gy))	impact on cancer cell microtubule dynamics, un-irradiated ([4]; un-irradiated)	accumulation of activated uncaged MMAE in tumors [5]	fraction of drug activated in live cancer cells [6]
Alb-DMBA-SIL-DOX	nuclear accumulation	confined to the cytoplasm	detectable drug release	69±8	roughly 100 fold	–	–	–	–	–	–
Alb-DMBA-SIL-MMAE	–	–	detectable drug release	66±6	–	5,700 fold	~40	totally eliminated	no significant impacts	–	–
Alb-pATFB-SIL-MMAE	–	–	–	–	–	–	–	–	–	accumulation of chemically activated MMAE payload in irradiated but not non-irradiated tumors	roughly 50%

From patent publication US20250302968A1, “RADIATION CLEAVED DRUG-CONJUGATE LINKERS ENABLE LOCAL PAYLOAD RELEASE SCLEROSIS” (The General Hospital Corporation, priority 2022, published 2025)
